Data reported in patent publication US20110143948A1, “MOLECULAR SIGNATURES AND BIOMARKERS ASSOCIATED WITH MELANOMA AND METHODS OF USE THEREOF” (priority 2008, published 2011).

Assays:
NOTCH1 = assay: qRT-PCR and Western blotting of NOTCH1 in WM1552C/34b cells; type: cell-based, human; conditions: WM1552C/34b compared to WM1552C; ectopic expression
Experimental: To understand the significance of down-regulation of miR-34b in malignant melanoma, and thus to develop a systematic rationale for its possible future use as a tumor suppressor and biomarker, its mechanism of action or normal cellular function in skin cells must be understood. FIG. 19 serves as an example model. First, candidate target genes of miR-34b were determined using computational resources including miRanda, miRbase, miRNAmap, Tarbase, PicTar, Target ScanS, and DIANA MicroTest (http://www.ncrna.org). Second, first degree interaction maps (FIG. 20) from each putative target gene were generated to computationally evaluate whether the putative target genes were biologically significant. In this preliminary analysis the putative target genes for miR-34b were imported to GeneGo software for further analysis. In FIG. 20, the nodes in the interaction map indicate direct interaction between miR-34b and their putative target genes. From the most connected and representative genes on the network and pathway analyses, it seems that organogenesis, proliferation, development and cell cycle regulation themes are prevalent, along with ECM signaling, ion and/or vesicle transport. Damage response genes can also be observed, and some well-known signaling cascades (MAPK, IP3) were represented among the putative targets of miR-34b. […]

[1] = tested on: miR-34b expression in WM1552C melanoma cells; assay: Northern blot of miR-34b after 5AzadC treatment; type: cell-based, human; conditions: 1-2.5 μM of 5AzadC
[2] = tested on: miR-34b CpG islands in WM1552C; assay: CpG island bisulfite sequencing after 5AzadC treatment; type: cell-based, human; conditions: WM1552C treated with 5AzadC
Experimental: To investigate epigenetic miRNA regulation within melanoma, one μg of genomic DNA was treated with sodium bisulfite according to the manufacturers protocol (Zymo). 2 μL of bisulfite-treated genomic DNA was used for bisulfite PCR. PCR was performed using AmpliTaq Gold thermostable polymerase (Applied Biosystems) and the following thermocycling profile: 6 minute hot-start at 95° C.; 35 cycles of 94° C. for 20 seconds, 54° C. for 25 seconds, and 72° C. for 30 seconds; 10 minute extension at 72° C. PCR products were gel purified using the QiaQuick gel extraction kit (Qiagen) and cloned into the pCR4-TOPO vector (Invitrogen). 9 clones for each miRNA candidate were sequenced using M13 primers and the BigDye Terminator kit v1.1 (Applied Biosystems), analyzed on a 3130×1 Genetic Analyzer (Applied Biosystems), and aligned using VectorNTI AlignX (Invitrogen).
Specifically, this study focused on the putative promoter region of −631 bps to −396 bps of the CpG islands upstream of miR-34b and focused on the putative promoter region of −170 bps to +58 bps of the CpG islands of miR-375. In addition, miR-124-3a and let-7i were used as negative controls because of the lack of CpG islands (data not shown). No CpG island methylation was detected in either miR-124-3a or let-7i.
miR-34b demethylation results were further confirmed by the CpG island bisulfite studies. […] See FIG. 15, FIG. 16, and FIG. 18. […]

[3] = tested on: melanoma cell line WM1552C; assay: miRNA arrays (TILDA_ABI and NCode_Invitrogen) of treated melanoma cells; conditions: for let-7e expression, fold change compared to non-treated / miR-21 expression, fold change compared to non-treated / miR-34b expression, fold change compared to non-treated / miR-34c expression, fold change compared to non-treated / miR-132 expression, fold change compared to non-treated / miR-142-3p expression, fold change compared to non-treated / miR-145 expression, fold change compared to non-treated / miR-200a expression, fold change compared to non-treated / miR-375 expression, fold change compared to non-treated / miR-489 expression, fold change compared to non-treated / miR-496 expression, fold change compared to non-treated / miR-519b expression, fold change compared to non-treated / miR-654 expression, fold change compared to non-treated / miR-452 expression, fold change compared to non-treated: WM1552C treated 24 hrs, 3 μM-5AzadC, 1 mM-PBA
[4] = tested on: melanoma cell line WM1552C; assay: cell viability and cell survival assays; type: cell-based, human; conditions: three independent biological experiments

## miR-34b: miRNA ectopically expressed in WM1552C/34b cells, CAAUCACUAACUCCACUGCCAU (listed as Homo sapiens)
NOTCH1
  NOTCH1 expression (qRT-PCR, Western blotting): Down-regulation

## Nc1ncn([C@H]2C[C@H](O)[C@@H](CO)O2)c(=O)n1 [5AzadC]
[1]
  miR-34b expression (Northern blot), low concentrations: No visible expression changes
[2]
  CpG island methylation (bisulfite studies): completely removed previously methylated sites
[3]; WM1552C melanoma cells after 5AzadC
  expression levels of several miRNAs in TLDA arrays: marked increase
[3]
  let-7e expression, fold change compared to non-treated: 2.96
  miR-21 expression, fold change compared to non-treated: 2.124
  miR-34b expression, fold change compared to non-treated: 5.159
  miR-34c expression, fold change compared to non-treated: 4.525
  miR-132 expression, fold change compared to non-treated: 3.239
  miR-142-3p expression, fold change compared to non-treated: 2.928
  miR-145 expression, fold change compared to non-treated: 2.948
  miR-200a expression, fold change compared to non-treated: 2.294
  miR-375 expression, fold change compared to non-treated: 4.701
  miR-489 expression, fold change compared to non-treated: 2.064
  miR-496 expression, fold change compared to non-treated: 2.291
  miR-519b expression, fold change compared to non-treated: 2.46
  miR-654 expression, fold change compared to non-treated: 2.422
[3]; first miR-452 line of Table 3
  miR-452 expression, fold change compared to non-treated: 2.044
[3]; second miR-452 line of Table 3
  miR-452 expression, fold change compared to non-treated: 3.182

## O=C(O)CCCc1ccccc1 [4PBA]
[4]
  doses shown to be toxic (cell death): ≥ 5 mM
[3]
  let-7e expression, fold change compared to non-treated: 0.1571
  miR-21 expression, fold change compared to non-treated: 0.09011
  miR-34b expression, fold change compared to non-treated: −1.872
  miR-34c expression, fold change compared to non-treated: −0.7958
  miR-132 expression, fold change compared to non-treated: 1.033
  miR-142-3p expression, fold change compared to non-treated: 3.621
  miR-145 expression, fold change compared to non-treated: −2.28
  miR-200a expression, fold change compared to non-treated: 2.089
  miR-375 expression, fold change compared to non-treated: 3.397
  miR-489 expression, fold change compared to non-treated: 3.527
  miR-496 expression, fold change compared to non-treated: −0.4714
  miR-519b expression, fold change compared to non-treated: 0.2083
  miR-654 expression, fold change compared to non-treated: −0.3226
[3]; first miR-452 line of Table 3
  miR-452 expression, fold change compared to non-treated: −2.272
[3]; second miR-452 line of Table 3
  miR-452 expression, fold change compared to non-treated: −0.534
